The chains behind the UniProt entries cited, without tags or fusion partners.
UniProt Q8NER1, whole entry: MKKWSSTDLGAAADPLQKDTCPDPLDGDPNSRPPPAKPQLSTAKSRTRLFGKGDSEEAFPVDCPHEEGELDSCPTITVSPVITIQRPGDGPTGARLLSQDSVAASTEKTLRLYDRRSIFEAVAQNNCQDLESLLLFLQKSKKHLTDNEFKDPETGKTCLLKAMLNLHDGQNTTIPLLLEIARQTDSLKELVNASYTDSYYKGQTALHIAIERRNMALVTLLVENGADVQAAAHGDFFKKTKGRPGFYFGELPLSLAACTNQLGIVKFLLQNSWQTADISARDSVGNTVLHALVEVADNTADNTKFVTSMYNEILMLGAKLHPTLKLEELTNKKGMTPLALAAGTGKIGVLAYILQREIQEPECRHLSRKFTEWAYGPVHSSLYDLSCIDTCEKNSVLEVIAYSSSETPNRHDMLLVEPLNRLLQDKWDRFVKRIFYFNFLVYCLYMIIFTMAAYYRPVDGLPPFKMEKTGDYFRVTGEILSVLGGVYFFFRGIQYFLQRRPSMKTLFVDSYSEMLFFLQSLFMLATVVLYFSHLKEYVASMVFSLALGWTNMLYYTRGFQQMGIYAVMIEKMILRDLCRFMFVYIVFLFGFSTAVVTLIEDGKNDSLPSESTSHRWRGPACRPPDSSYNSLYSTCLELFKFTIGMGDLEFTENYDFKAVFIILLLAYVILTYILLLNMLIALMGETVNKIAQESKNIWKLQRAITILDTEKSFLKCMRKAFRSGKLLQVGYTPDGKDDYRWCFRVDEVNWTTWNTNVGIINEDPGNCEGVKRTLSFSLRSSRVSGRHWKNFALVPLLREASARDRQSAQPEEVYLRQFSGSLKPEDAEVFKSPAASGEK

According to ChEMBL document CHEMBL1142448, “Design and synthesis of 6-phenylnicotinamide derivatives as antagonists of TRPV1” (Bioorg Med Chem Lett, 2008):

Target: Transient receptor potential cation channel subfamily V member 1 (Homo sapiens, UniProt Q8NER1)
Test: Antagonist activity at human TRPV1 expressed in human 1321N1 cells assessed as inhibition of capsaicin-induced calcium influx by FLIPR assay
Type: functional, cell-based

- pKb: 8.7
SMILES: O=C(Nc1ccc2cccnc2c1)c1ccc(-c2ccccc2)nc1
